Sequences of proteins named here, by UniProt entry; tags and fusion partners are left off. Residues count along the entry.
UniProt O60674, 849-1124 Y1007F/Y1008F limits assumed: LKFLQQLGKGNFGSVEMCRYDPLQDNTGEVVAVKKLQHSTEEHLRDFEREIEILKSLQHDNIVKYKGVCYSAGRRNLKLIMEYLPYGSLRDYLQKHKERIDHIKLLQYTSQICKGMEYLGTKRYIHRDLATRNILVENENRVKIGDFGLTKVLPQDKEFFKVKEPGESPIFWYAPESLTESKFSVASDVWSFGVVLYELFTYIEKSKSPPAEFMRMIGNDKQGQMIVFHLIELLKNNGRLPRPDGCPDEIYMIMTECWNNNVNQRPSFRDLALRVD

According to patent US11691963B2, “6-heteroaryloxy benzimidazoles and azabenzimidazoles as JAK2 inhibitors” (Ajax Therapeutics, Inc., priority 2020, dated 2023):

Molecular target: JAK2 (JH1domain-catalytic, Y1007F,Y1008F) kinase (Homo sapiens (Human), UniProt O60674, Y1007F/Y1008F)
Assay: JAK2 Binding Assay (JAK2 JH1 Domain Binding Assay)
Conditions: read-out: JAK2 Kd, qPCR readout
Procedure: JAK2 (JH1domain-catalytic, Y1007F,Y1008F) kinase was expressed as N-terminal fusion to the DNA binding domain of NFkB in transiently transfected HEK293 cells and subsequently tagged with DNA for qPCR detection. Streptavidin-coated magnetic beads were treated with biotinylated small molecule ligands for 30 minutes at room temperature to generate affinity resins for kinase assays. The liganded beads were blocked with excess biotin and washed with blocking buffer (SeaBlock (Pierce), 1% BSA, 0.05% Tween 20, 1 mmol/L DTT) to remove unbound ligand and to reduce nonspecific phage binding. Binding reactions were assembled by combining kinases, liganded affinity beads, and test compounds in 1× binding buffer (1×PBS, 0.05% Tween 20, 0.1% BSA, 1 mmol/L DTT). Test compound was prepared as 111× stocks in 100% DMSO and directly diluted into the assay wells. All reactions were performed in polypropylene 384-well plates in a final volume of 0.02 mL. The assay plates were incubated at room temperature with shaking for 1 hour and the affinity beads were washed with wash buffer (1×PBS, 0.05% Tween 20). The beads were then re-suspended in elution buffer (1×PBS, 0.05% Tween 20, 0.5 μmol/L non-biotinylated affinity ligand) and incubated at room temperature with shaking for 30 minutes. The kinase concentration in the eluate was measured by qPCR.

In the case of `CC(=O)Nc1cc(Oc2ccc3nc(Nc4cc(C(C)(C)C)nn4C)n(C)c3c2C)ccn1`, the pKd was 7.30 to 8.00.

pKd: −log10 of the molar value.
